The test system of one experiment is EGFR-A2058 cells. The experiment can be described thus: Cell viability (MTS) after polyplex transfection of A2058 cells. The class given is cell-based. As for the experimental part: (§1) Spectrophotometry: Concentrations were determined using either a Thermo Nanodrop 2000 spectrometer or Perkin Elmer Lambda 365 Spectrophotometer. DLS measurements: DLS measurements were performed on a Malvern Nano ZS (Malvern Instruments, U.K.), operating at 633 nm with a 173° scattering angle, at 25 or 37° C. DLS mean diameters were obtained from the intensity particle size distribution provided by Malvern Zetasizer Software. DLS histograms were obtained from the intensity particle size distributions. Zeta-potential: The zeta-potential values of the polyplexes were obtained by laser doppler anemometry (LDA), measuring the mean electrophoretic mobility (Malvern Zetasizer Nano ZS, Malvern Instruments, U.K.). Measurements were performed in 10 mM HEPES pH 7.1, 150 mM NaCl. TEM measurements: TEM measurements were performed on a JEOL JEM-1011 operated at 100 kV electron microscope, equipped with a camera S5 MegaView G2. […] Infrared Spectroscopy: FT-IR spectra were recorded on a Bruker Vertex 70v, equipped with a RockSolid interferometer, after preparing the samples (1-2 mg) as KBr pellets. […] NMR Spectroscopy: 1H NMR spectra were recorded on a 11.7 T Bruker DRX-500 spectrometer. […] Experiments were recorded acquiring 64-512 scans, with a pre-scan delay (d1) of 12 s, and an acquisition time (aq) of 4 s at 300 K. 13C NMR spectrum was recorder on a 9.39 T Varian Innova 400 spectrometer. […]

For the next experiment, the system named is EGFR+ A431 cells. The experiment can be described thus: Cell viability (MTS) after polyplex transfection of A431 cells. The class given is cell-based. As for the experimental part:
as §1

[1] abbreviates: co-administered with PAMAM G5(PEG-N3)6.2 npSaporin polyplexes, 73 nM Cetuximab-SO1861 or 4 μM SO1861-EMCH, 72 h.

Turning to “Cetuximab-SO1861: Cetuximab conjugated via cysteines with SO1861-EMCH, 4 SO1861 moieties per antibody (DAR4)”, the “cytoplasmic delivery of npSaporin / cell killing” value in the experiment on EGFR-A2058 cells (setting [1]) was “not in the EGFR-cell line A2058”; in the experiment with EGFR+ A431 cells (setting [1]) it was “very strong enhancement in cytoplasmic delivery of the npSaporin”. Moreover, the “cell killing by polyplexed npSaporin” value in the experiment with EGFR-A2058 cells (co-administration of Cetuximab-SO1861 (DAR4), no EGFR expression) is on record as “this cell killing was not observed”. Besides, the “plasmid concentration from which cell killing occurs” value in the experiment on EGFR+ A431 cells (polyplexed npSaporin (PAMAM G5 or PAMAM G5 (PEG-N3)6) co-administered with Cetuximab-SO1861 (DAR4)) is no less than 10 PM.

The record behind these values is US20260077055A1, “COMPOSITIONS OF POLYPLEXES AND SAPONINS” (SAPREME TECHNOLOGIES B.V., priority 2022, published 2026).
